In patent EP4830706A1, “COMPOSITION FOR PREVENTING OR TREATING ALZHEIMER'S DISEASE, CONTAINING NOVEL COMPOUND” (dated 2026):

Columns and labels:
Tau-P301L = test: Tau aggregation: insoluble/soluble fractionation and Western blot in transfected HEK293 cells; conditions: for insoluble mutant tau fraction: HEK293 cells transfected with Tau-P301L, 5 µM, 24 hours, pellet (insoluble) fraction, FIGs. 1A and 1B
Experimental: (§1) For SDS-PAGE, proteins were extracted from cells using RIPA buffer (50 mM Tris-Cl, pH 7.5, 150 mM NaCl, 1% NP-40, 0.1% SDS, and 10% sodium deoxycholate). Samples were separated by SDS-PAGE and transferred to a PVDF membranes. The blotted membrane was blocked with 3% skim milk containing TBST buffer for 1 h and incubated with specific antibodies. Reacted antibodies were detected by ECL and X-ray film exposure. HA (sc-7392) and GFP (green fluorescent protein; sc-8036) antibodies were purchased from Santa Cruz Biotechnology (Santa Cruz, CA, USA). Actin antibody (66009-1-lg) and α-tubulin antibody (66240-1-lg) were obtained from Proteintech (Rosemont, IL, USA). The anti-TH antibody (NB300-109) was purchased from Novus Biologicals (CO, USA). As secondary antibodies, HRP-conjugated goat anti-mouse, goat anti-rabbit, and mouse anti-goat antibodies (Pierce, Thermo Fisher Scientific, Inc., Rockford, IL, USA) were used. After incubation, cells were harvested using TNN buffer (50 mM Tris-Cl, pH 7.5, 150 mM NaCl, 0.3% NP-40) and centrifuged at 14,000 rpm for 30 minutes to separate the pellet (insoluble) and the supernatant (soluble). "Input" refers to whole cell lysates (WCL) harvested using RIPA buffer. Actin was used as a loading control.
GFP-Tau (WT; #46904, P301L; #46908) plasmids were purchased from Addgene (Cambridge, MA, USA). Transfection was performed using Jet-PEI reagent (JetPEI; Polyplus transfection, New York, NY, USA) according to the manufacturer's protocol. Briefly, the vector was mixed with JetPEI reagent in 150 mM NaCl buffer, and the mixture was incubated for 15 minutes. The mixture was added to cells in serum-free medium for 4 h. After incubation, the cells were replaced with culture medium supplemented with 10% FBS.
To investigate the effect of the PRG-A compound on tau aggregation (tau tangles), the inventors transfected HEK293 cells with indicator vectors (Tau-WT, Tau-P301L) and treated the cells with selected compounds (5 µM) for 24 hours. […]

normal human fibroblasts = test: Cell viability, MTT assay; conditions: 48 h; for cytotoxic effects: normal human fibroblasts, FIG. 3
Experimental: HEK293 cells were obtained from the American Type Culture Collection (ATCC, Manassas, VA, USA) and maintained in DMEM medium supplemented with 10% fetal bovine serum and 1% penicillin-streptomycin at 37°C in a humidified atmosphere with 5% CO2. SK-N-SH cells were purchased from the Korean Cell Line Bank (KCLB, Seoul, South Korea) and maintained in MEM medium supplemented with 10% fetal bovine serum, 1% antibiotics, 25 mM HEPES, and 300 mg/L L-glutamine. Human fibroblasts (person) were obtained from Coriell Cell Repositories (New Jersey, USA) and maintained in EMEM supplemented with 15% FBS, 2 mM glutamine, and 26 mM HEPES, without antibiotics.
To investigate cell viability, cells were treated with chemicals (PRG-A compound) for 48 h. Then, the cells were incubated with 0.5 mg/ml 3-(4,5-dimethylthiazol-2-yl)-2,5-diphenyltetrazolium bromide (MTT) solution (475989; Merck, Darmstadt, Germany) at 37°C for 4 h. After removing the excess solution and washing with PBS, the precipitated substances were dissolved in 200 µl of DMSO and quantified by measuring the absorbance at 540 nm.
Lastly, to determine the toxicity of PRG-A compounds, normal human fibroblasts and neuroblastoma cells (SK-N-SH) were cultured with each compound for 48 h, and cell viability was measured via the MTT assay. The effect on survival rates of neuronal cells and normal fibroblasts was identified (FIG. 3).

presenilin 1 (PS1) [1] = test: SDS-PAGE / HA antibody detection of oligomeric PS1 in PS1-HA transfected SK-N-SH cells; conditions: treated for 24 hours, FIG. 2C
Experimental: as §1
It is also known that mutations in presenilin 1 (PS1) are associated with Alzheimer's disease (AD). […]

presenilin 1 (PS1) [2] = test: Immunofluorescence staining of PS1 inclusions in cells transfected with PS1-HA or PS1-GFP; conditions: PS1-HA or PS1-GFP vectors 24 hours, then 5 µM for 24 hours; FIGs. 2A and 2B
Experimental: Cells on coverslips were washed with PBS, fixed with 4% paraformaldehyde (PFA) for 30 min at room temperature, and then permeabilized in 0.1% Triton X-100/PBS for 10 min. After treating cells with a blocking solution (3% anti-human antibody diluted 1:500 in PBS) for 1 h, cells were incubated with HA (diluted 1:500) overnight at 4°C. Finally, cells were incubated with FITC- and rhodamine-conjugated secondary antibodies for 6 h at 4°C. Nuclei were stained with 4,6-diamidino-2-phenylindole (DAPI), and endoplasmic reticulum (ER) was stained with ER-Tracker Red dye for 10 min. Cells were washed three times with PBS, and then coverslips were mounted with mounting solution (H-5501; Vector Laboratories, Burlingame, CA, USA), followed by analysis with fluorescence microscopy (Zeiss).
It is also known that mutations in presenilin 1 (PS1) are associated with Alzheimer's disease (AD). Therefore, to examine the effect of the PRG-A compound on PS1 expression and localization, cells were transfected with PS1-HA or PS1-GFP vectors for 24 hours. After incubation, cells were treated with the PRG-A compound (5 µM) for 24 hours. Cells were fixed with 4% PFA and stained with an HA antibody (green) and ER marker (red) to monitor PS1 inclusions (white arrows, strong PS1 intensity) (FIGs. 2A and 2B). Ectopically expressed PS1 formed aggregates in the cytoplasm (FIGs. 2A and 2B). […]

| Compound | tau aggregation (Tau-P301L; induced by overexpression of Tau-WT and Tau-MT, Fig. 1 A and B) | cytotoxic effects (normal human fibroblasts) | impact on cell viability (normal human fibroblasts; high doses (50 and 100 µM), cell type not given) | insoluble mutant tau fraction (Tau-P301L) | oligomeric PS1 (presenilin 1 (PS1) [1]) | PS1 aggregates (IF staining) (presenilin 1 (PS1) [2]) |
| --- | --- | --- | --- | --- | --- | --- |
| CC1(C)Oc2cc3oc(=O)ccc3cc2C[C@@H]1O | only marginal effects | – | – | – | – | – |
| COc1cc(/C=C/CO[C@H]2Cc3cc4ccc(=O)oc4cc3OC2(C)C)ccc1[N+](=O)[O-] | – | did not exhibit cytotoxic effects | – | – | – | – |
| CC1(C)Oc2cc3oc(=O)ccc3cc2C[C@@H]1OC(=O)/C=C/c1ccc(F)cc1 | – | – | low impact | – | – | – |
| COc1cc(/C=C/C(=O)O[C@H]2Cc3cc4ccc(=O)oc4cc3OC2(C)C)ccc1O | – | did not exhibit cytotoxic effects | – | significantly reduced | reduced | reduced |
| COc1cc(/C=C/CO[C@H]2Cc3cc4ccc(=O)oc4cc3OC2(C)C)ccc1O | – | did not exhibit cytotoxic effects | – | significantly reduced | reduced | reduced |
